Experiments:
Assay type in all cases: binding
BRD4 BD1 WT [1] = molecular target: T1, BRD4 BD1 WT (Homo sapiens, UniProt O60885); test: competitive AlphaLISA; conditions: separated enantiomers test; total compound concentration
BRD4 BD1 L/V [2] = molecular target: T2, BRD4 BD1 L/V (Homo sapiens, UniProt O60885, L94V); test: competitive AlphaLISA; conditions: total compound concentration; for ΔpIC50 BRD4 BD1: L/V minus WT
BRD4 BD1 WT [3] = molecular target: T1, BRD4 BD1 WT; test: ITC; conditions: read-out: Kd BRD4 BD1 WT; ITC of separated enantiomers; total compound concentration
BRD4 BD1 L/V [4] = molecular target: T2, BRD4 BD1 L/V; test: ITC; conditions: read-out: Kd BRD4 BD1 L/V; ITC of separated enantiomers and racemates; total compound concentration

Row | SMILES | pIC50 BRD4 BD1 WT (BRD4 BD1 WT [1]) | ΔpIC50 BRD4 BD1 (BRD4 BD1 L/V [2]) | pIC50 BRD4 BD1 L/V (BRD4 BD1 L/V [2]; separated enantiomers test) | Kd (BRD4 BD1 WT [3]) | Kd (BRD4 BD1 L/V [4])
1 | CC[C@H](C(=O)OC)[C@H]1N=C(c2ccc(Cl)cc2)c2ccc(OC)cc2-n2c(C)nnc21 | 4.6 | 0.4 | 5.0 | > 60 µM | > 60 µM
2 | COC(=O)[C@@H](C)[C@H]1N=C(c2ccc(Cl)cc2)c2ccc(OC)cc2-n2c(C)nnc21 | 4.2 | 1.4 |  | > 60 µM | > 60 µM
